The subject of one series is Menin mutant proteins. Particulars: Menin mutants (M327, G331, T349); cited from earlier work.
The nature of series [1]: Pharmacokinetic study in SD rats. The conditions noted are these: male SD rats, oral, 10 mg/kg, 0.5% MC + 0.1% SDS. As for the experimental part: Male SD rats were obtained from Beijing Vital River Laboratory Animal Technology Co., Ltd. The rats were divided into groups of three animals each, and the test sample suspension (10 mg/kg, formulated in 0.5% MC + 0.1% SDS) was administered orally by gavage. The animals were fasted overnight prior to the experiment, with food withheld from 10 hours before dosing until 4 hours after dosing. Blood samples were collected at 0.25, 0.5, 1, 2, 4, 6, 8, and 24 hours after dosing. Following anesthesia with isoflurane using a small animal anesthesia machine, 0.3 mL of whole blood was collected from the retro-orbital venous plexus into heparin anticoagulant tubes. The samples were centrifuged at 4000 rpm for 5 minutes at 4°C, and the plasma was transferred to centrifuge tubes and stored at -80 °C until analysis. Plasma samples were extracted using the protein precipitation method, and the extracts were analyzed by LC/MS. Table 3. Pharmacokinetic parameters of the example compounds.

Amino acid sequences for entries named in this document (tags omitted). Chains listed by the source or under a name are the forms on record and can include a tag or linker.
UniProt O00255, with tags, fused parts or gaps: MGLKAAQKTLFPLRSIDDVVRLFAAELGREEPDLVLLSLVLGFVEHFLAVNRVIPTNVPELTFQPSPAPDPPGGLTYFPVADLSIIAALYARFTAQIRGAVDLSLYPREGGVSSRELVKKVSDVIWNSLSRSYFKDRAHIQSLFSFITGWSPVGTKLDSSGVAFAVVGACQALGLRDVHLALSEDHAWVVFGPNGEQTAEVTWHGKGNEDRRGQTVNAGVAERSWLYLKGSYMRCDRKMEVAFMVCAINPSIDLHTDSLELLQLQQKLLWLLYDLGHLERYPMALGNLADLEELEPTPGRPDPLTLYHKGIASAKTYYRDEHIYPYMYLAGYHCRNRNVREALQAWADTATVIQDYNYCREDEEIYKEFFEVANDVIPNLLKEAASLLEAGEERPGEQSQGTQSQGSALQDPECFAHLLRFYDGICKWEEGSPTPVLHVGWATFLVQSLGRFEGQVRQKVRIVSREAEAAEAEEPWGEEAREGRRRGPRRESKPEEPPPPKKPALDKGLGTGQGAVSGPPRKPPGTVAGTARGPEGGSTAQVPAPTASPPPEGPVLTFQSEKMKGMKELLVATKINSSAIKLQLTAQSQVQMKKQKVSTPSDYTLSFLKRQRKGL
UniProt O00255, with tags, fused parts or gaps M327I: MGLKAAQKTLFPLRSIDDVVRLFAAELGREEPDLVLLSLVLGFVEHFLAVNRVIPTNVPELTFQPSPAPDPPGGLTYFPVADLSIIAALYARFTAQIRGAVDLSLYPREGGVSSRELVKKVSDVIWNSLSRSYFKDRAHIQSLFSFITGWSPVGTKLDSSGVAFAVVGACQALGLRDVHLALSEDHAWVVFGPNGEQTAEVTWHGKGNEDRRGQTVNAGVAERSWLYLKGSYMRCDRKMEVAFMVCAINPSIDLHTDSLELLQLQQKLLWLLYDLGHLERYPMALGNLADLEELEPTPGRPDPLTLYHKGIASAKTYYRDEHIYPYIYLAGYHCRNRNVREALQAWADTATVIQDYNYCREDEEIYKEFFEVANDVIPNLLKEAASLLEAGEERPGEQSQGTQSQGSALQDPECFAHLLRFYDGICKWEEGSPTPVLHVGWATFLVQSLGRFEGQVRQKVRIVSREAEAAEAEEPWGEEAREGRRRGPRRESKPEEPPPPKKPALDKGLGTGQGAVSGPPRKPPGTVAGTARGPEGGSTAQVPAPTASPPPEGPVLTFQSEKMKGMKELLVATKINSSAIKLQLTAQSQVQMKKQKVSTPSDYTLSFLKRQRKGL

Another series has as its target Wild-type Menin-MLL (Homo sapiens, UniProt O00255). Description: Fluorescence polarization binding assay (FP assay), inhibition of wild-type Menin-MLL binding. The conditions noted are these: read-out: IC50 (nM) Menin^wt, 5 nM Menin, 2 nM FITC-MLL (4-43), 23 °C, 1 hour. The source says: Wild-type Menin binds with high affinity to the conserved N-terminal sequence of MLL. Compounds bind to Menin by competing with the MLL N-terminus. FITC-MLL (4-43) (synthesized by GenScript) contains the conserved sequence responsible for MLL binding to Menin. We established a method to detect the binding activity between Menin and MLL using a fluorescence polarization binding assay (FP assay), which was then used to evaluate the inhibitory activity of compounds. The specific procedure is as follows: Compounds were serially diluted 5-fold in 100% DMSO starting from 1 mM (8 concentrations in total). For each concentration, 2 µL was added to 48 µL of reaction buffer (50 mM NaCl, 50 mM Tris (pH 7.5), 0.05% Tween-20, 1 mM DTT) and mixed thoroughly to obtain 4× compound solutions (reaching final assay concentrations of 10000, 2000, 400, 80, 16, 3.2, 0.64, 0 nM) for later use. Use reaction buffer to prepare 2× Menin to a final assay concentration of 5 nM, and 4× FITC-MLL (4-43) to a final assay concentration of 2 nM. Add 5 µL of the 4× compound solution to a 384-well plate (OptiPlate-384, purchased from PerkinElmer). Then add 10 µL of the 2× Menin solution and centrifuge. After that, add 5 µL of FITC-MLL (4-43) and centrifuge again to initiate the reaction. Incubate at 23 °C for 1 hour protected from light. After the reaction, the signal was read on an EnVision 2104 Multilabel Reader (purchased from PerkinElmer) at an excitation wavelength of 480 nm and an emission wavelength of 535 nm. The data were analyzed using GraphPad Prism (data analysis software) to obtain the IC50 values of the compounds.
(In general: Polarisation of emitted light reports the rotation of a fluorescent probe.)

Series [2] has as its system MV-4-11 cells expressing wild-type Menin protein. Nature of the series: MV-4-11 cell proliferation inhibition (CellTiter-Blue). Particulars: read-out: IC50 (nM) MV-4-11, 72 hours incubation. As for the experimental part: MV-4-11 cells are human acute myeloid leukemia cells that contain the MLL-AF4 fusion protein. In this experiment, after incubating different concentrations of the compounds with MV-4-11 cells, the CellTiter-Blue® detection reagent from Promega was used to establish a screening method for the inhibition of MV-4-11 cell proliferation.
MV-4-11 cells were cultured in RPMI-1640 medium (Biological Industries, Cat. No. 01-100-1ACS) supplemented with 10% fetal bovine serum (Biological Industries, Cat. No. 04-001-1ACS), under conditions of 37°C and 5% CO2. The cells were subcultured 2 - 3 times per week. Cells were seeded into 96-well cell culture plates (Corning®) at 5,000 cells per well in 195 µL/well and incubated at 37°C with 5% CO2. After 24 hours, compounds were serially diluted 3-fold in 100% DMSO starting from 10 mM (10 concentrations in total). Then, 4 µL of each compound concentration was added to 96 µL of RPMI-1640 medium and mixed well. Subsequently, 5 µL of the diluted compound from each concentration was added to the prepared cell suspension, and the compounds were co-incubated with the cells in a cell culture incubator for 72 hours (3 days). Then, 35 µL of CellTiter-Blue reagent (Promega, Cat. No. G8082) was added, and the reaction was incubated at 37°C with 5% CO2 for 4 hours. Fluorescence values were read on a BMG Clariostar Microplate Reader, and the data were processed using GraphPad Prism software to calculate the IC50 value of the compound for cell proliferation inhibition.
A general note: The colour change of resazurin is a common sign of viable cells or microbes.

Another series concerns Menin^M327I/MOLM13 cells. Nature of the series: Menin^M327I/MOLM13 cell proliferation inhibition (CellTiter-Glo). The conditions noted are these: read-out: IC50 (nM) Menin^M327I/MOLM13, 7 days incubation. As for the experimental part: The Menin^M327I DNA sequence was inserted into the lentiviral vector pCDHL-CMV-3xFlag-puroR via restriction enzyme digestion and ligation. The construct was co-transfected with psPAX2/pMD2G into 293T cells. After 48 hours, the virus was harvested and used to infect MOLM13 cells. Pool and monoclonal selections were performed using puromycin to ultimately obtain a stable cell line stably expressing the Menin^M327I recombinant protein.
MOLM13 cells are human acute myeloid leukemia cells that contain the MLL-AF9 fusion protein. In this experiment, different concentrations of compounds will be incubated with Menin^M327I/MOLM13 cells for 7 days, and viable cells will be detected using Promega's CellTiter-Glo assay.
MOLM13 cells were cultured in RPMI-1640 medium supplemented with 20% fetal bovine serum. One day prior to compound addition, cells were seeded into 96-well cell culture plates at 500 cells per well in a volume of 195 µL per well. Compounds were dissolved in DMSO to a final concentration of 10 mM. The 10 mM compound stock was then serially diluted 3-fold in DMSO to obtain 10 concentrations. For each concentration, 2 µL was taken and added to 48 µL of RPMI-1640 medium for a 25-fold dilution, and then added as a 40× compound to the prepared cell suspension. After co-incubation in the incubator for 7 days, 35 µL of Cell-Titer Glo was added, and the mixture was allowed to stand at room temperature for 10 minutes. Fluorescence signals were read on a CLARIO starPlus instrument, and finally the IC50 value for cell proliferation inhibition was calculated using GraphPad Prism 5.0.
Background: ATP-based viability assays read luminescence as a measure of living cells.

A further series has as its target Menin^M327I (Homo sapiens, UniProt O00255, M322I). Nature of the series: Fluorescence polarization binding assay (FP assay), inhibition of mutant Menin-MLL binding. The conditions noted are these: read-out: IC50 (nM) Menin^M327I, 5 nM Menin^mut, 2 nM FITC-MLL (4-43), 23 °C, 1 hour. The text has this: The Menin^mut DNA sequence was cloned into the pET28a vector via restriction enzyme digestion and ligation. The recombinant protein was expressed using the BL21 E. coli system and purified by Ni-NTA to obtain Menin^mut. Menin binds with high affinity to the conserved N-terminal sequence of MLL, and compounds bind to Menin by competing with the MLL N-terminus. FITC-MLL (4-43) (synthesized by GenScript) contains the conserved sequence responsible for MLL binding to Menin. We employed a fluorescence polarization binding assay (FP assay) based on the principle that the binding of FITC-MLL (4-43) to Menin^mut increases the molecular weight and enhances fluorescence, to evaluate the inhibitory effect of compounds on the binding between Menin^mut and MLL. The detailed procedure is as follows: Compounds were dissolved in DMSO to a final concentration of 10 mM. The 10 mM compound solution was then diluted 10-fold with DMSO, followed by 5-fold serial dilutions to obtain a total of 8 concentrations. For each concentration, 2 µL was added to 48 µL of reaction buffer (50 mM NaCl, 50 mM Tris, pH 7.5, 0.05% Tween-20, 1 mM DTT) and mixed thoroughly to obtain 4× compound solutions (reaching final assay concentrations of 10000, 2000, 400, 80, 16, 3.2, 0.64, 0 nM) for later use. Use reaction buffer to prepare 2× Menin^mut to a final assay concentration of 5 nM, and 4× FITC-MLL (4-43) to a final assay concentration of 2 nM. Add 5 µL of the 4× compound solution to a 384-well plate (OptiPlate-384, purchased from PerkinElmer). Then add 10 µL of the 2× Meninmut solution and centrifuge. After that, add 5 µL of FITC-MLL (4-43) and briefly centrifuge to initiate the reaction. Incubate at 23 °C for 1 hour protected from light. After the reaction, the signal was read on an EnVision 2104 Multilabel Reader (purchased from PerkinElmer) at an excitation wavelength of 480 nm and an emission wavelength of 535 nm. For each compound, the inhibitory effect was determined at 8 concentrations. The data were processed using GraphPad Prism software to calculate the half-maximal inhibitory concentration (IC50) of the compound for Menin-MLL binding.

Consider `CCN(C(=O)c1cc(F)ccc1Oc1cncnc1N1CC2(CCN(C[C@H]3CC[C@H](NS(=O)(=O)CC)CC3)CC2)C1)C(C)C`, for which, in the series on Menin mutant proteins, the “binding affinity of Menin mutant proteins” value is recorded as “significantly reduced”.

Take `CCN(C(=O)c1cc(F)ccc1-n1c2c(c3c(C)cncc31)CC1(CC2)CN(C(CCCN(C)CCOC)C(C)C)C1)C(C)C` (racemic): in series [1], the AUC0-inf worked out at 956 ng·h/mL; the highest concentration (Cmax) (as a rule, the peak of the concentration-time curve) came to 166 ng/mL; the T1/2 came to 9.16 h; the time of peak concentration (Tmax) – broadly, the time from dosing to the highest level – came out at 2.67 h. Further, on Wild-type Menin-MLL, the IC50 turned out to be 8 nM. Besides, the IC50 in series [2] came to 6.4 nM. The IC50 with Menin^M327I/MOLM13 cells was 39 nM. Besides, at Menin^M327I, the IC50 is 3.8 nM.

`CCN(C(=O)c1cc(F)ccc1-n1c2c(c3c(C)cncc31)CC1(CC2)CN([C@H](CCCN(C)CCOC)C(C)C)C1)C(C)C`: in series [1], the AUC0-inf was 794 ng·h/mL, the Cmax amounted to 170 ng/mL, the T1/2 was 14.3 h and the Tmax turned out to be 2.00 h. For the same compound, on Wild-type Menin-MLL, the IC50 is 3.4 nM. Moreover, the IC50 in series [2] came to 2.6 nM. Moreover, in the series on Menin^M327I/MOLM13 cells, the IC50 is 11.8 nM. For the same compound, at Menin^M327I, the IC50 came to 1.9 nM.

In the case of `CCN(C(=O)c1cc(F)ccc1-n1c2c(c3c(Cl)cncc31)CC1(CC2)CN(C(CCCN(C)CCOC)C(C)C)C1)C(C)C` (racemic), in series [1], the AUC0-inf amounted to 598 ng·h/mL, the maximum concentration (Cmax) worked out at 53.5 ng/mL, the T1/2 was determined as 15.2 h and the time to peak (Tmax) amounted to 4.08 h. For the same compound, the IC50 at Wild-type Menin-MLL amounted to 6.2 nM. Besides, the IC50 in series [2] amounted to 6.5 nM. In addition, the IC50 with Menin^M327I/MOLM13 cells was 26.1 nM. For the same compound, the IC50 at Menin^M327I was 3.1 nM.

Source of the values: EP4821930A1, “SUBSTITUTED POLYCYCLIC COMPOUND” (dated 2026).
